Laboratory results taken from patent publication US11819554B2, “Compositions and methods for modulating FMR1 expression” (University of Massachusetts, priority 2015, dated 2023).

Tested on: epigenetically silenced FMR1 gene in FXS iPSCs (FXS 848-iPS3 cells)
Experiment: qRT-PCR analysis monitoring expression of FMR1 in FXS iPSCs
Format: cell-based, human
Settings: titration with increasing concentrations (FIG. 8D)

CCN(c1cc(-c2ccc(CN3CCOCC3)cc2)cc(C(=O)NCc2c(C)cc(C)[nH]c2=O)c1C)C1CCOCC1 [EPZ6438]
correlation between loss of EZH2 enzymatic activity and FMR1 reactivation: very good correlation
